Experimental data: ChEMBL document CHEMBL1151538, “Rearrangement of unsymmetrical azetidinone disulfides to 2-(heterocyclylthiomethyl)penams, a synthetic approach to new -lactamase inhibitors” (Bioorg Med Chem Lett, 1993)

Amino acid sequences for entries named in this document (tags omitted). A change or cut given only in a name is not applied to a line headed by its entry.
UniProt P13661: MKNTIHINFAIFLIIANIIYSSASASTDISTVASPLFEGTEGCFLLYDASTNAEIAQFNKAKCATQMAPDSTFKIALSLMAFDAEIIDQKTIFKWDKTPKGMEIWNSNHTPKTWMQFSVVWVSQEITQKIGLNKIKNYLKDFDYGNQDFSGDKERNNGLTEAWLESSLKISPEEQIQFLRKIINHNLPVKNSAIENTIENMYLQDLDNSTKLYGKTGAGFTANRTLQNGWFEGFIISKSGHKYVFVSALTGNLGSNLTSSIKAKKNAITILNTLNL

Molecular target: Beta-lactamase OXA-1 (Escherichia coli, UniProt P13661)
Assay: Inhibitory activity against Escherichia coli HA209 Class-V OXA-1 type beta-lactamase enzyme

Work on `C[C@@]1(CSc2nc3ccccc3o2)S[C@@H]2[C@H](Br)C(=O)N2[C@H]1C(=O)O` yielded an IC50 of 2330 nM.
